Measurements as given in PubChem BioAssay AID488890 (Southern Research Specialized Biocontainment Screening …, 2010).
Results filed as inconclusive are left out.

Test system: Mycobacterium tuberculosis non-replicating, growth inhibition
Assay: growth inhibition of non-replicating M. tuberculosis (AID 488890)

| SMILES | IC50 [nM] |
| --- | --- |
| Cc1[nH]n(-c2ccccc2)c(=O)c1C=Nc1ccc(S(=O)(=O)Nc2nccs2)cc1 | 4230 |
| O=C(Nc1ccc(Br)cn1)c1ccc([N+](=O)[O-])o1 | 920 |
| O=C(Nc1cccnc1)c1ccc([N+](=O)[O-])s1 | 2810 |
